The values that follow come from ChEMBL document CHEMBL4725250, “The development of a structurally distinct series of BACE1 inhibitors via the (Z)-fluoro-olefin amide bioisosteric replacement” (Bioorg Med Chem Lett, 2020).

By UniProt entry, the sequences of proteins in these tests, tags left out. Where a name states a change or a piece, a line headed by the entry shows the natural chain unless it says otherwise.
UniProt P56817: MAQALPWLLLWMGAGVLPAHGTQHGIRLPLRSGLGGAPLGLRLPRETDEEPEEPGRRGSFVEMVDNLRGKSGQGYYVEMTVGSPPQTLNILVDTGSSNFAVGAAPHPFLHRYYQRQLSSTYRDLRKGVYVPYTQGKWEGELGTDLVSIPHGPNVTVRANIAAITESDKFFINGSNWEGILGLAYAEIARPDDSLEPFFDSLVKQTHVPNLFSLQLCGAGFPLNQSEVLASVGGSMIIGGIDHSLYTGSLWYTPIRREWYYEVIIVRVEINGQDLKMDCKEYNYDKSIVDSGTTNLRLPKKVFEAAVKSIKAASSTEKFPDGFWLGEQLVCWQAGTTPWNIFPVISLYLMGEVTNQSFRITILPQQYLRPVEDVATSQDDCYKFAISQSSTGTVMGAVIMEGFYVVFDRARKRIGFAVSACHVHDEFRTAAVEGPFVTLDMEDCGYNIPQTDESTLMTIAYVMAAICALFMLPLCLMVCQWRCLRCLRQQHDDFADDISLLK

Assay [1] deals with T1, Beta-secretase 1 (Homo sapiens, UniProt P56817).
Assay [2] addresses T1, Beta-secretase 1. This is another data set of the same source.

Broadly, the IC50 is the concentration that gives 50% inhibition. Lower therefore signals inhibition by little substance. Regarding `CN(C)C(=O)[C@]12C[C@H]1[C@@](C)(c1cc(/C=C(\F)c3ccc(C#N)cn3)ccc1F)N=C(N)S2`, the IC50 was found to be 2 nM at Beta-secretase 1 [1] and 3 nM at Beta-secretase 1 [2].
